Measured values: patent publication US20240262807A1, “COMPOUND USED AS BCR-ABL INHIBITOR” (CHIA TAI TIANQING PHARMACEUTICAL GROUP CO., LTD., priority 2021, published 2024)
Where two headings read alike, the source gives them in different places.

By UniProt entry, the sequences of proteins in these tests, tags left out.
UniProt P00519, whole entry T315I: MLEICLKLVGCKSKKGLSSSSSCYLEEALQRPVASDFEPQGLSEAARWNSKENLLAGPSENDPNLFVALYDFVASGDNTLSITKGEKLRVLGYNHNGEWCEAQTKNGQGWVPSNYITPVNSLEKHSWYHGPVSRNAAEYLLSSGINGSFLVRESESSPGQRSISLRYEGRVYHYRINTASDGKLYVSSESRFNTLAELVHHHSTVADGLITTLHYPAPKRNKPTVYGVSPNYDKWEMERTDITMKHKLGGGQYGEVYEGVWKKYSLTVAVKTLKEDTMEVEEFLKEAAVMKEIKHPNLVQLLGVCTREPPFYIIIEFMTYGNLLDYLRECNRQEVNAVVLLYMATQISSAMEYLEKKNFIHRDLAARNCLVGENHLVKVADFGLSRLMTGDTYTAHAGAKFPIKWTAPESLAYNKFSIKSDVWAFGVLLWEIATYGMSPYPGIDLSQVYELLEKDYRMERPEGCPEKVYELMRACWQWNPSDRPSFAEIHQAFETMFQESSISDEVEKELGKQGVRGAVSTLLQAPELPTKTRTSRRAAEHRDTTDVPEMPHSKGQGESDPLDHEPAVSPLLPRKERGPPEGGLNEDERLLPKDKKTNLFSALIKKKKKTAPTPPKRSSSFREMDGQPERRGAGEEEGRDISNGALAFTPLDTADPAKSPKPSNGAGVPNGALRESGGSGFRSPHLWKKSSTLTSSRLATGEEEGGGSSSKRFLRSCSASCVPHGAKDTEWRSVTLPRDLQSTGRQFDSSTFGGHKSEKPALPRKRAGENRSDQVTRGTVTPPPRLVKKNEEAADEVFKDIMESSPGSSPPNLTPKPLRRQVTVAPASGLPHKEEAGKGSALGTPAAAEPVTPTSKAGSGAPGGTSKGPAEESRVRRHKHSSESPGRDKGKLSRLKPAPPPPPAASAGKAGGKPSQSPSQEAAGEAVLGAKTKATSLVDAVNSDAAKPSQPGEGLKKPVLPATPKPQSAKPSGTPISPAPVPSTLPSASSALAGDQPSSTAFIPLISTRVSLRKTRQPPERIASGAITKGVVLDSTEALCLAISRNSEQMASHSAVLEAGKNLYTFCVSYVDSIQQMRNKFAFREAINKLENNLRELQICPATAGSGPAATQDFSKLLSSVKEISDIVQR

Experiments:
K562 cells = assay: Inhibitory effect of compounds on proliferation of K562 cells (CCK-8); conditions: read-out: IC50 (nM) K562
[1] = molecular target: Ba/F3-BCR-ABL1-T315I-C3 cells (Homo sapiens, UniProt P00519, T315I, cells depend on it); assay: Inhibitory effect of compounds on proliferation of BCR-ABL T315I-transfected Ba/F3 cells (CCK-8); conditions: read-out: IC50 (nM) Ba/F3-BCR-ABL1 T315I, 72 h with compound, CCK-8, 5% serum
Description: Ba/F3-BCR-ABL1-T315I-C3 cells in logarithmic growth phase and good cell condition were added to a centrifuge tube and centrifuged at 1000 rpm for 5 min in a low speed centrifuge. The supernatant was discarded, and 5 mL of complete medium (RPMI 1640 basic medium+10% FBS) was added using a pipette for cell resuspension. The cells were counted using a cell counter, diluted with complete medium to a cell density of 6×10^4 cells/mL, and an equivalent amount of RPMI 1640 basic medium was added to adjust the serum concentration to 5% and the cell density to 3×10^4 cells/mL for plate seeding. The cells were seeded on a 96-well plate at 100 μL/well using a multi-channel pipette and cultured in a cell incubator at 37° C. 5% CO2 and saturated humidity. After 24 h incubation, compounds were loaded using a nanoliter pipettor, 8 concentrations (1000 nM, 250 nM, 63 nM, 16 nM, 3.9 nM, 0.98 nM, 0.24 nM, 0.061 nM) were set for each compound, and 2 replicate wells were set for each concentration; cells with no compounds added were taken as a negative control, and a plating medium with no cells added was taken as a blank control. After 72 h. CCK-8 was added into Ba/F3-BCR-ABL1 T315I cells at 10 μL/well, the cells were placed at 37° C. for 1 h, and then the absorbance was measured at 450 nm with an Envision plate reader, and inhibition rate was calculated. Inhibition rate (%)=(mean value of negative control group−mean value of experimental group)/(mean value of negative control group−mean value of blank group)×100%. A dose-response curve was fitted by four-parameter analysis, with the logarithm of compound concentration serving as abscissa and inhibition rate serving as ordinate, such that ICso was calculated.

[2] = K562 cells, 72 h with compound, CCK-8, 5% serum

| Compound | IC50 (K562 cells) [nM] | GI50 [1] [nM] | IC50 (K562 cells; [2]) [nM] |
| --- | --- | --- | --- |
| Cn1ccc(-c2cc(C(=O)Nc3ccc(OC(F)(F)Cl)cc3)cnc2N2CC(F)C2)cc1=O | 4.1 | 13 |  |
| Cn1ccc(-c2cc(C(=O)Nc3ccc(OC(F)(F)Cl)cc3)cnc2N2CCOCC2)c(F)c1=O |  | 8.4 | 3.7 |
| Cn1ccc(-c2cc(C(=O)Nc3ccc(OC(F)(F)Cl)cc3)cnc2N2CCC2)cc1=O | 3.8 | 7.5 |  |
| Cn1ccc(-c2cc(C(=O)Nc3ccc(OC(F)(F)Cl)cc3)cnc2N2CCC2CO)cc1=O (single isomer, unassigned) |  | 14 | 3.8 |
| Cn1ncc(-c2cc(C(=O)Nc3ccc(OC(F)(F)Cl)cc3)cnc2N2C3CCC2COC3)cc1=O |  | 9.5 | 17 |
| Cn1ccc(-c2ncc(C(=O)Nc3ccc(OC(F)(F)Cl)cc3)cc2-c2cnn(C)c(=O)c2)n1 |  | 18 | 14 |
| O=C(Nc1ccc(OC(F)(F)Cl)cc1)c1cnc(N2CC[C@@H](O)C2)c(-c2cnn3c2COCC3)c1 |  | 4.3 | 1.7 |
| CO[C@@H]1CCN(c2ncc(C(=O)Nc3ccc(OC(F)(F)Cl)cc3)cc2-c2ccn(C)c(=O)c2)C1 | 4.8 | 9.6 |  |
| CO[C@H]1CCN(c2ncc(C(=O)Nc3ccc(OC(F)(F)Cl)cc3)cc2-c2ccn(C)c(=O)c2)C1 |  | 19 | 9.3 |
| O=C(Nc1ccc(OC(F)(F)Cl)cc1)c1cnc(N2CCOCC2)c(-c2ccn(C3CC3)c(=O)c2)c1 |  | 20 | 9 |
| CN1CCc2cc(-c3cc(C(=O)Nc4ccc(OC(F)(F)Cl)cc4)cnc3N3CC(O)C3)[nH]c2C1=O |  | 1.1 |  |
